The values below are quoted from earlier work in article PMC3089658.

By UniProt entry, the sequences of proteins in these tests, tags left out. Residues count along the entry.
UniProt P01589, 22-240, chain 1 of 3: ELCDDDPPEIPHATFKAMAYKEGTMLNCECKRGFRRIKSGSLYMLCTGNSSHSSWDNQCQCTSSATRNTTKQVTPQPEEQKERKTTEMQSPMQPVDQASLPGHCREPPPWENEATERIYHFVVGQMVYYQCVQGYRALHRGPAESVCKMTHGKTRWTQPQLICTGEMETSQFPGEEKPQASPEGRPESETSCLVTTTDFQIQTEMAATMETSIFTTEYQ
UniProt P60568, 21-153: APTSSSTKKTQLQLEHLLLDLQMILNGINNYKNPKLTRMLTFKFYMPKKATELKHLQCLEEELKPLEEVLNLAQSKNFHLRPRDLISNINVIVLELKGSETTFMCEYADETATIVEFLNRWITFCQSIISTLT

By Kd is commonly meant the equilibrium constant for the complex coming apart.

For the data set, the target named is high affinity IL-2R (Homo sapiens) (UniProt P01589).

Regarding IL-2 (from UniProt P60568), the dissociation constant (Kd) is 0.01 nM.
